Drawing on US20200360381A1, “COMPOUNDS FOR TREATING DENGUE VIRUS INFECTION AND OTHER VIRAL INFECTIONS” (priority 2017, published 2020), this text covers inhibition for 1 compound.

The assay relates to VSV-eGFP. As to the kind of experiment: microbe, parasite or virus in culture. As to conditions: Vesicular stomatitis virus, 6 h. The class given is cell-based.

In the case of `CN(CC(=O)N(Cc1ccc(C2CCCCC2)cc1)c1ccc(C(=O)O)cc1)S(=O)(=O)c1c(F)c(F)c(F)c(F)c1F` [Compound S7337], the inhibition at 5 µM (read-out: VSV 5 μM) was 17%. Besides, the inhibition at 10 µM (read-out: VSV 10 μM) is 66%.
